# Data from PubChem BioAssay AID489030 (Sanford-Burnham Center for Chemical Genomics, 2010).
# Sequences of proteins named here, by UniProt entry; tags and fusion partners are left off.
# UniProt O14727, whole entry: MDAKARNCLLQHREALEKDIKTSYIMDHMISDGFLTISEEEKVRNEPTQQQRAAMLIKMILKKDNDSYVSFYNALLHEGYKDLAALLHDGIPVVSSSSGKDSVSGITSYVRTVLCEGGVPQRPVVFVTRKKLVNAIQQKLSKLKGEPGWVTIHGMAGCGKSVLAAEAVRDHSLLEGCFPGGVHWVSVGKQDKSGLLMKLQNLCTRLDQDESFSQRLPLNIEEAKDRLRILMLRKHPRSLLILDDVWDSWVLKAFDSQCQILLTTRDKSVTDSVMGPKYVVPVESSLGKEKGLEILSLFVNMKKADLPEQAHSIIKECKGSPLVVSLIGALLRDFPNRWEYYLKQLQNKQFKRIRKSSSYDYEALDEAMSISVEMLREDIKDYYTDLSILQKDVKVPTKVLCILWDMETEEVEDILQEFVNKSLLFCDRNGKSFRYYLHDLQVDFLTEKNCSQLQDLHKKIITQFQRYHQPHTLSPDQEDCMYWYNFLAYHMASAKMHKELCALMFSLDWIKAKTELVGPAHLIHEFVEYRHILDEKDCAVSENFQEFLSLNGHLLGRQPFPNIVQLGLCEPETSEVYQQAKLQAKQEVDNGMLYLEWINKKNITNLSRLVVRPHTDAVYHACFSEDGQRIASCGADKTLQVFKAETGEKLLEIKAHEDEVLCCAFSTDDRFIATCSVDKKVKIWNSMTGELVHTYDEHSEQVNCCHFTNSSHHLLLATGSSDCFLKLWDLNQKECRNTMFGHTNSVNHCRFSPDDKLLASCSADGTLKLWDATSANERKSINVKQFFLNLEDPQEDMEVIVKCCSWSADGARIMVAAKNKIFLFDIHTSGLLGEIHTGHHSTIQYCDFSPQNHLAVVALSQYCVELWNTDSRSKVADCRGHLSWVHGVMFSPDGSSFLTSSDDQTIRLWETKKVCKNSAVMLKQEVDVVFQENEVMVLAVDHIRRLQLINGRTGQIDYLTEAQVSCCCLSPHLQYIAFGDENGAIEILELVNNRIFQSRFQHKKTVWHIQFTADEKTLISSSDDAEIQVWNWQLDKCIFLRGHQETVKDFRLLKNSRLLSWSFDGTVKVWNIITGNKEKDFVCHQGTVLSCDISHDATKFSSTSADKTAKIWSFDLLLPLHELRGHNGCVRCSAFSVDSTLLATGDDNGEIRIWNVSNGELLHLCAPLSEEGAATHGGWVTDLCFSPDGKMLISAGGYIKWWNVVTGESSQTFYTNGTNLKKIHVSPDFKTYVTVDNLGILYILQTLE
# The entries are a selection whose mix differs from that of the whole data set. Activity calls are given as the source filed them. How the source made its calls: active means inhibition of at least 40% at 20 µM; inactive means the rest.
# Biological target: Apoptotic protease-activating factor 1 (Homo sapiens) (UniProt O14727)
# Assay: blockers of Apaf-1-driven caspase-3 activation – biochemical, DEVD-Rh110 fluorescence, uHTS, primary screen (AID 489030);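 further: plate controls were DMSO wells for no effect and DEVD-CHO caspase inhibitor wells for full effect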
# Conditions: reconstituted apoptosome caspase-3 activity, at 20 µM, stronger effect = higher value
# Method in brief: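 Medium: Hepes buffer, pH 7.5 / System: biochemical Apaf-1 apoptosome reconstitution / Measured by: Rh110 fluorescence, excitation 480 nm, emission 540 nm / Times: compound with Apaf-1, dATP, procaspase-3 30 min, then 50 min reaction, room temperature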
row,SMILES,inhibition
1,COc1ccc(Cl)cc1C(=O)NCC1(N2CCOCC2)CCCCC1,inactive: 7.26%
2,O=C(NCC1(N2CCOCC2)CCCCC1)c1cc2ccccc2o1,inactive: -1.05%
3,O=C(NCC1(N2CCCCC2)CCCCC1)c1ccc(Cl)nc1,inactive: 4.06%
4,Cc1cc(C)cc(N(C(=O)c2ccccc2)C2CCN(C(=O)OC(C)(C)C)CC2)c1,inactive: 29.5%
5,CSc1ccccc1C(=O)NCC1(N2CCCCC2)CCCCC1,inactive: -0.701%
6,O=C(NCC1(N2CCCCC2)CCCCC1)c1ccc(=O)[nH]c1,inactive: 4.3%
7,O=C(NCC1(N2CCCCC2)CCCCC1)c1cccs1,inactive: 23.7%
8,COc1ccc(C(=O)NCC2(N3CCCCC3)CCCCC2)cc1,inactive: 6.48%
9,COc1ccc(C(=O)NCC2(N3CCCCC3)CCCCC2)c(OC)c1OC,inactive: -15.1%
10,CC(C)(C)OC(=O)N1CCC(N(C(=O)c2ccccc2)c2ccc(F)cc2)CC1,inactive: 2.44%
11,CCCOc1ccc(C)cc1CN(CCCl)CCCl,inactive: -24.5%
12,CN1CCC(Nc2ccc(Cl)cc2)CC1,inactive: -5.43%
13,CCC(CO)(C(=O)OC1CN2CCC1CC2)c1ccccc1 (stereo not drawn),inactive: 3.24%
14,COc1cc(OC)cc(C(=O)NCC2(N3CCOCC3)CCCCC2)c1,inactive: 2.64%
15,COc1cccc(C(=O)N(c2cc(C)cc(C)c2)C2CCN(C(=O)OC(C)(C)C)CC2)c1,inactive: 28.9%
16,CCCOc1ccc(C(=O)NCC2(N(C)C)CCCCC2)cc1,inactive: -2.04%
17,CC(C)(C)OC(=O)N1CCC(Nc2ccccc2)CC1,inactive: 3.42%
18,O=C(O)C1(Nc2ccccc2)CCN(Cc2ccccc2)CC1,inactive: 8.44%
19,CCOc1ncccc1C(=O)NCC1(N2CCOCC2)CCCCC1,inactive: -2.86%

row,SMILES,inhibition
1,CN1CCC(Nc2ccc(F)c(Cl)c2)CC1,inactive: -4.24%
2,O=C(NCC1(N2CCCCC2)CCCCC1)c1ccco1,inactive: 11.3%
3,CN(C)c1ccc(C(=O)NCC2(N3CCCCC3)CCCCC2)cc1,inactive: -6.35%
4,CCN1CCC(Nc2cccc(F)c2)CC1,inactive: 2.09%
5,Cc1ccc(C(=O)NCC2(N3CCCCC3)CCCCC2)o1,inactive: -1.85%
6,Fc1ccccc1NC1CCN(Cc2ccccc2)CC1,inactive: -12.3%
7,COc1cc(OC)cc(C(=O)NCC2(N3CCCCC3)CCCCC2)c1,inactive: 15.3%
8,c1ccc(CN2CCC(Nc3ccccc3)CC2)cc1,inactive: 5.96%
9,CCCN1CCC(Nc2cc(OC)cc(OC)c2)CC1,inactive: -3.22%
10,CN(C)C1(CNC(=O)c2cccc(C#N)c2)CCCCC1,inactive: -0.876%
11,CC(C)(C)OC(=O)N1CCC(N(C(=O)c2ccccc2)c2ccc(Cl)cc2)CC1,inactive: 13.4%
12,N#Cc1ccc(C(=O)NCC2(N3CCCCC3)CCCCC2)cc1,inactive: -9.79%
13,CCc1cc(C(=O)NCC2(N3CCCCC3)CCCCC2)sc1C,inactive: 15.1%
14,O=C(OC1CN2CCC1CC2)C1c2ccccc2C=Cc2ccccc21 (stereo not drawn),inactive: 0.594%
15,N/C(=N\O)c1c(N)no[n+]1[O-],inactive: 0.81%
16,CCOC(=O)N1CCC(Nc2ccc(C)cc2)CC1,inactive: -5.24%
17,COc1ccc(C(=O)NCC2(N3CCOCC3)CCCCC2)cc1OC,inactive: 4.85%
18,O=C(NCC1(N2CCOCC2)CCCCC1)c1cc(Br)ccc1Cl,inactive: 9.08%
19,COc1cc(C(=O)NCC2(N3CCOCC3)CCCCC2)cc(OC)c1C,inactive: 0.645%
